Test results as given in paper doi:10.1101/2025.02.26.640323, “Aggregation-Dependent Epitope Sequence and Modification Fingerprints of Anti-Aβ Antibodies” (bioRxiv, 2025).

What was measured:
[1] = system: Aβ1–42 monomer, oligomer and fibril preparations; AβpE3–40; assay: Bistris-SDS gradient PAGE/Western blot; type: binding; conditions: 4–12% Bistris SDS-PAGE/Western blot, nitrocellulose
Description: No SPR-487B) (StressMarq biosciences, Victoria, BC, Canada). The samples for electrophoresis were prepared (starting from stock solutions) with final concentrations of 0.1 μg/μL) in LDS sample buffer (247.5 mM Tris-HCl, pH 8.5, 2% (w/v) lithium dodecyl sulfate (LDS), 10% (v/v) glycerol, 0.5 mM EDTA, 0.22 mM Brilliant Blue G250, 0.175 mM Phenol Red) and denatured by heating at 70°C for 10 min. […] The prechilled transfer buffer contained 25 mM Tris, 192 mM glycine, 20% (v/v) methanol and 0.0375 % Tween-20. After blotting, the membrane was washed for 10 min at room temperature in Tris-buffered saline (TBS) followed by blocking for 30 min with 5% powdered milk in TBS containing 0.1% Tween-20 (TBS-T). The blots were then incubated with primary antibodies in 5% milk in TBS-T over night at 4°C and washed 3 × for 10 min with TBS-T at room temperature. […] After 1 h incubation with the secondary antibodies, the blots were washed 3 × for 10 min with TBS-T and incubated for 5 min with ECL-Prime Western Blotting Detection Reagent (Cytiva Amersham, Little Chalfont, England). Images were recorded on a Vilber-Loumart Fusion SL blot imager. […] That way, the 4G8 reprobing signals were essentially added on top of the initial signals and background artifacts.

[2] = system: synthetic Aβ peptide variants; assay: Capillary isoelectric focusing (CIEF) immunoassay; type: binding; conditions: data not shown
Description: Automated capillary isoelectric focusing immunoassays were performed with a Peggy-Sue system (ProteinSimple,San Jose, California, USA), essentially as previously described and [53].
In brief, synthetic Aβ peptide variants were separated by isoelectric focusing in microcapillaries followed by photochemical immobilization to the inner capillary walls and probing with the primary antibodies for 120 min. After 2 washes, the horseradish peroxidase conjugated secondary antibodies were loaded and incubated for 60 min. After two washing steps, a luminol/peroxide mix was loaded, and chemiluminescent signals were recorded. The data was analyzed with the Compass for SW software. The following secondary antibodies were used: Anti-human IgG Secondary HRP antibody (Protein Simple, catalog number 043–491), Goat-Anti-Mouse-HRP Secondary Antibody ProteinSimple, catalog number 040–655) and Peroxidase-conjugated Affini Pure Donkey Anti-Human IgG (H+L) (1:100 dilution) (Jackson ImmunoResearch Laboratories Inc., West Grove, PA, code number 709–035-149).

[3] = system: Aβ phosphorylated at Ser(8); assay: PTM-Aβ microarray, pSer8; type: binding, human; conditions: optimized antibody concentrations (Aducanumabbs 0.02μg/mL; 1E4E11 0.25μg/mL), vs unphosphorylated
Description: Specific PTMs might be associated with different stages of AD progression and severity, offering potential biomarkers for diagnosis and prognosis. Targeting PTMs represents a potential therapeutic strategy to prevent Aβ aggregation and neurotoxicity, thereby slowing disease progression. […] Therefore, a selected group of PTM-carrying Aβ peptides (PTM-Aβ) were incorporated into the Aβ chip to explore the potential binding preference of selected Aβ-Abs, under optimized concentrations (Figure 3). The antibodies were tested with both PTM-Aβ and the corresponding unmodified variants to provide a head-to-head comparison. This screening was performed in the presence of Aβ phosphorylated at positions Ser(8) or Ser(26), N-terminal pE at position 3, racemization/isomerization of Asp at position 1, and unmodified N-terminal variants. The dataset is divided into sections (Figure 3 a–f) for enhanced visualization, where each antibody was screened simultaneously against all peptides to locate their epitope preferences. […] A set of antibodies without reported PTM preference was applied here as controls (refer to Table 1), namely 11H3, 101–1-1, IC16, 82E1 and 3D6.
Figure 3. […] Blue and red shades indicate the binding strength over the related arrayed […] modified peptide shown on top and cognate anti-Aβ antibody to the left. […]

[4] = system: Aβ vascular and parenchymal deposits in AD brain sections; assay: Immunohistochemistry on AD brain tissue with antibody pre-adsorption; conditions: Lecanemabbs (PX-TA1746) 0.06 μg with 0.25 μg, human AD brain
Description: Immunohistochemistry was performed on 4-μm paraffin sections. In brief, brain sections were deparaffinized in Roticlear (Carl Roth, Karlsruhe, Germany) and rehydrated in a descending series of ethanol. Activity of endogenous peroxidases was blocked by incubation in 0.3% H2O2 in PBS for 30 min. […] Antibodies and peptides were incubated on a rotator for 3 h at room temperature and reaction tubes were centrifuged at 13000 rpm for 5 min at the end of the incubation period. Control conditions included antibodies in 0.01 M PBS including 10% FCS without synthetic peptides. Adjacent paraffin-embedded sections from a human AD case were incubated overnight with the supernatants and sections were washed with 0.01 M PBS including 0.1 % Tergitol. For detection, biotinylated anti-human antibodies (6 μg/ml, Jackson ImmunoResearch, West Grove, Pennsylvania, USA #109-065-003) were used and staining was visualized with the ABC method with a Vectastain kit (Vector Laboratories, Newark, California, USA), diaminobenzidine as a chromogen and counterstaining with hematoxylin.

Aducanumabbs: human monoclonal, biosimilar of Aducanumab, Proteogenix (#PX-TA1335)
detection of fibrillar Aβ1–42 [1]: clearly detected highly aggregated fibrillar Aβ1–42
reproducibility of signals, CIEF-immunoassay [2]: substantial variances
preference for pSer8 Aβ [3]: showed preference for Aβ peptide fragments phosphorylated at Ser(8); also recorded: preference of Aducanumabbs for phosphorylated pSer8-Aβ(−1–14) and pSer8-Aβ1–15 over unphosphorylated Aβ-related 15-mers; also recorded: high selectivity for phosphorylated pSer8-Aβ1–15 over unphosphorylated Aβ1–15
IHC immunoreactivity after pre-adsorption with Aβ1–42 fibrils ([4]; Aducanumabbs 0.5 μg with 5 μg fibrils, antibody for IHC: Aducanumabbs 0.5 μg/μl (so in the source)): largely blocked
IHC immunoreactivity after pre-adsorption with Aβ1–42 monomers ([4]; Aducanumabbs 0.5 μg with 10 μg monomers): in contrast to pre-adsorption with an excess of Aβ1–42 monomers

“Also recorded” adds a separate entry of the source.
